Data as given in patent US4150137A, “Pyridylalkyl esters of 2-(p-isobutylphenyl)acetic acid and propionic acids and use” (Hisamitsu Pharmaceutical Co. Inc., priority 1975, dated 1979).

Tested on: male mice of dd-strain
Type: in vivo
Conditions: death of animals 72 hours following administration
Description: Each test compound suspended in 0.5% tragacanth-saline was administered intraperitoneally or orally to male mice of dd-strain(body weight 16-24 g). The lethal dose was estimated from the death of animals 72 hours following administration.

CC(C)Cc1ccc(C(C)C(=O)O)cc1 (stereo not shown) [ibuprofen, 2-(p-isobutylphenyl)propionic acid, reference compound]
acute toxicity, oral (lethal dose): 1000 to 2000 mg/kg
